Source: patent US20090275083A1, “Isolated peptides having phospholipase inhibitory activity” (published 2009)

T1: Thermomyces lanuginosus lipase (TLL) variant N248G/Q249G/P250T/N251L/I252G/P253L (Thermomyces lanuginosus)
T1 chain: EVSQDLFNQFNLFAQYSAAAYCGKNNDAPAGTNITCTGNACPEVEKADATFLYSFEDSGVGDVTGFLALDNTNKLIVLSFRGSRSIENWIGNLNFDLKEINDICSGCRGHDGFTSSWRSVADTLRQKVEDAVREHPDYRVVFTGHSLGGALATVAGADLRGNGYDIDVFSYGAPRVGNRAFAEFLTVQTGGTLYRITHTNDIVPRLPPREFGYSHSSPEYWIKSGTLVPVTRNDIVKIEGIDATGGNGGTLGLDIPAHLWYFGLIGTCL


Target: T1, Thermomyces lanuginosus lipase (TLL) …
Assay: cell-based or functional assay

Row | Binder | IC50 (half maximal inhibitory concentration; p-NP butyrate hydrolysis) (peptide/lipase ratio)
1 | ATMTDAELEKKLNSYVNMDKEYVKNNQARS (modifications not checked) [Peptide P12 (Q303N)] | 1690
2 | ATMTDAELEKKLNSYVQMDAEYVKNNQARS (modifications not checked) [Peptide P13 (K306A)] | 1720
